According to ChEMBL document CHEMBL1133485, “3alpha-(4-Substituted phenyl)nortropane-2beta-carboxylic acid methyl esters show selective binding at the norepinephrine transporter” (Bioorg Med Chem Lett, 2000):
pKi: −log10 of the molar value.

Sequences of proteins named here, by UniProt entry; tags and fusion partners are left off.
UniProt P31652, whole entry: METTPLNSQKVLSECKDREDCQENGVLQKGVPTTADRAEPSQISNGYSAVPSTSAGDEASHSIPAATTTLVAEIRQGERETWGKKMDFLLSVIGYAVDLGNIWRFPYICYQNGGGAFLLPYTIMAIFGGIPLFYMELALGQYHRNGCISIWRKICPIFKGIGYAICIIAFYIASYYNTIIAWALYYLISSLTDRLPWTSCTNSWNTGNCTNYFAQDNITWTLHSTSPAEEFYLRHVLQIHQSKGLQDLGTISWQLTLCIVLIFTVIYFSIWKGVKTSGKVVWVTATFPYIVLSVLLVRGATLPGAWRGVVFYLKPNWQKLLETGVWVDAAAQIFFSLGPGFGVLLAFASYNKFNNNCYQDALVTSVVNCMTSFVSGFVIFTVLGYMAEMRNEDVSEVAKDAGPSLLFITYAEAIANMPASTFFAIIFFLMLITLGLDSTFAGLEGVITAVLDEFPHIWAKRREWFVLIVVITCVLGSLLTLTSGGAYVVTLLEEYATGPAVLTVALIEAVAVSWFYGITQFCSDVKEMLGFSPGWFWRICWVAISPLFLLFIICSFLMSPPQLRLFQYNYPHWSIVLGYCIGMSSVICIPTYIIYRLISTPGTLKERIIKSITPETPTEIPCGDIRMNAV

Molecular target: Sodium-dependent serotonin transporter (Rattus norvegicus, UniProt P31652)

## COC(=O)[C@@H]1C2CC[C@@H](C[C@@H]1OC(=O)c1ccccc1)N2C (single isomer, unassigned) [COCAINE]
  pKi: 7.02
